The values below are quoted from earlier work in paper PMC3170638.

The chains behind the UniProt entries cited, without tags or fusion partners. Residues count along the entry.
UniProt P35222, 2-781: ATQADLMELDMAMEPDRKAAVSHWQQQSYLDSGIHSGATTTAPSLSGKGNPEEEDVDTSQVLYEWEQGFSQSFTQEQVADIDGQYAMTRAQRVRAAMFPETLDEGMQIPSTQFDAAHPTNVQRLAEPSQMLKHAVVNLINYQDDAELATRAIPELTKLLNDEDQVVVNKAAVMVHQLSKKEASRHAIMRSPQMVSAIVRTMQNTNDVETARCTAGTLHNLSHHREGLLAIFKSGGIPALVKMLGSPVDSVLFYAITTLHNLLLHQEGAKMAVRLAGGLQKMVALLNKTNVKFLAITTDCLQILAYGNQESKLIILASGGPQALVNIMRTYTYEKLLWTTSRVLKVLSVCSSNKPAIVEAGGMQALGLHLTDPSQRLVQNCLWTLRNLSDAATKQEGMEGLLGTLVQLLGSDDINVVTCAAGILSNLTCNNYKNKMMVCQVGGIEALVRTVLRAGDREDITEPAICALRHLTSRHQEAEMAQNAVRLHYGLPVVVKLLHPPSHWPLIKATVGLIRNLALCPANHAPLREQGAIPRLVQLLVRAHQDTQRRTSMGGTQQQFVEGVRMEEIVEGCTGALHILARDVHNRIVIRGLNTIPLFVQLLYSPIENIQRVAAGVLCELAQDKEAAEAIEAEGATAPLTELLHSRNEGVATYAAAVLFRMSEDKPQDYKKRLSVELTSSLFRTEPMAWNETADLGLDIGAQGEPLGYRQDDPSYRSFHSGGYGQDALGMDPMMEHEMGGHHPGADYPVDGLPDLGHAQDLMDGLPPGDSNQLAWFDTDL
UniProt P25054, 1484-1528: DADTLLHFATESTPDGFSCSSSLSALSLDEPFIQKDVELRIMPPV

In this series the target is β-catenin (Homo sapiens) (UniProt P35222).

For “APC third 20aa repeat (from UniProt P25054)”, the Kd (commonly the free concentration of one partner at which half of the binding sites on the other are occupied at equilibrium, for simple one-to-one binding) was 1.5 nM.
